# scFv variants of Ab-14 (light chain) against a SARS-CoV-2 spike peptide

Target: peptide PDVDLGDISGINAS, taken from heptad repeat 2 (HR2) of SARS-CoV-2 spike.

Parent: Ab-14, a human scFv built as VH, three GGGGS repeats, VL. Only the CDRs of the light chain vary.
VH: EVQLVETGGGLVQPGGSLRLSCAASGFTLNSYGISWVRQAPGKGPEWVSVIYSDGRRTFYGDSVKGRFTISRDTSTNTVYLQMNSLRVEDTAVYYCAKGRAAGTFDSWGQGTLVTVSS
VL: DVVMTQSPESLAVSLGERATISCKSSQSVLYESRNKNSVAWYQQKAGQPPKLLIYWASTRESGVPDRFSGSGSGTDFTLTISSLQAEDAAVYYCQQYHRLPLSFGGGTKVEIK

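The parent was found by panning a naive human phage display library on the peptide. This is the validation round: designs drawn from the data on random variants, tested in the same kind of assay. Their group label is 14L_GP_Gibbs (GP: Gaussian process model; Gibbs: Gibbs sampling; a sequence that several methods proposed may carry one label only). In AlphaSeq, yeast of one mating type display the scFv and yeast of the other type display the target. After mating in shaken culture at 30 °C for 16 h, diploids were selected and their barcode pairs sequenced. Read counts were normalised to the haploid input and turned into Kd by a linear fit to BCL2-family pairs of known affinity, for each replicate. There are six technical replicates.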

Variants are written as CDR1, CDR2 and CDR3 of the light chain (limits as in the source). Parent: KSSQSVLYESRNKNSVA, WASTRES, QQYHRLPLS.
Affinities are written as log10 Kd with Kd in nM; a lower number is a better binder.
The mean shown is taken over the replicates in which the pair was detected.
"nd" marks a missing value. The strain was present, yet no cells mated with the target were sequenced in that replicate, which points to weak or no binding.

CDR-L1	CDR-L2	CDR-L3	log10 Kd, replicates	mean, log10 nM	signal with controls
KSSGSVLYEDKNVNSVA	NASQRLS	QQYHRLPLS	0.03 0.22 0.00 -0.14 0.02 0.25	0.06	0/18
KVEMSVPYEQRNKASVA	HASVRES	QQYHRLPLS	0.17 0.03 -0.05 -0.07 0.00 0.07	0.03	1/18 (2.47)
KVDQSVDGQSRNKNAVA	AASTRED	QQYHRLPLS	0.10 -0.36 -0.26 -0.21 -0.11 0.04	-0.13	0/18
KVSQKNLYESRMKNSVA	MASQRES	QQYHRLPLS	0.56 0.36 0.70 0.22 0.39 0.59	0.47	1/18 (2.88)
KVSQSYEYESNNSNSVA	NASQREH	QQYHRLPLS	0.43 0.58 0.23 0.44 0.53 0.88	0.51	2/18 (2.28)
KQSQSEDYGSRNKNSVA	DASQRES	QDYHRLPLS	0.16 0.03 0.04 -0.15 -0.19 0.07	-0.01	0/18
KVSQSQLYEQRMKQSVA	NASERES	QQYHRLPLS	0.71 0.40 0.34 0.13 0.18 0.48	0.37	1/18 (3.06)
KLSWSVGYGQRNKNSVA	EASTRMS	QQYHRLPLY	0.69 0.88 1.27 0.94 0.53 0.39	0.78	0/18
KFSQLWMYEQRNKNSVA	NASQRED	QQYHRLPLS	-0.03 0.01 -0.24 -0.28 -0.34 0.00	-0.15	3/18 (3.15)
KIEQSVLYEDRNINSVA	NASQRYS	QAYHRLPLS	0.29 -0.01 0.05 -0.06 -0.01 0.33	0.10	0/18
KSSESELYEDRNQNSVA	SASQRLS	QQYHRLPLS	0.38 0.01 -0.05 -0.14 -0.14 -0.04	0.00	1/18 (2.20)
KLQGSELGESRNKNSVA	SADTREE	QQYHRLPLS	0.29 0.16 0.01 -0.02 0.02 -0.07	0.07	1/18 (1.76)
KWEYSVLGESRNKNAVA	EASQREQ	QQYHRLPLS	-0.12 0.10 0.58 0.26 -0.04 0.15	0.15	0/18
KLQYSNLYGSRNLNSVA	NASTRLQ	QQYHRLPLS	0.20 0.05 -0.10 -0.16 -0.14 0.10	-0.01	3/18 (3.15)
KLSQSWLYLSRNSNAVA	NASQREQ	QQYHRLPLS	-0.27 -0.31 -0.28 -0.65 -0.34 -0.12	-0.33	2/18 (3.44)
KLSQSDGYEMRNKNSVA	EAQTREQ	QQYHRLPLS	-0.58 -0.06 -0.04 -0.05 -0.27 -0.11	-0.19	1/18 (0.46)
KLSQEVMMGDRNKNSVA	KASQRLS	QQYHRLPLS	0.91 0.51 0.58 0.55 0.06 0.51	0.52	0/18
KMSQEVPLESRNVNSVA	MASTRMM	QQYHRLPLS	0.29 0.36 0.48 -0.28 -0.17 0.47	0.19	0/18
KLAMSVMLESRWCNSVA	SASTREE	QQYHRLPLS	1.20 1.36 0.82 0.68 0.86 0.95	0.98	0/18
KLDQDDLYESRNCNNVA	QASTREQ	QQYHRLPLS	-0.19 -0.06 0.07 -0.19 -0.25 0.23	-0.06	1/18 (1.96)
KFEQLWGQEDRNKNSVA	NASQRED	QQYHRLPLS	-0.05 -0.27 -0.40 -0.26 -0.22 -0.11	-0.22	1/18 (3.13)
KLPQKWNYESRNKNNVA	SASCRES	QQYHRLPLS	0.25 0.18 0.03 0.06 0.26 0.31	0.18	3/18 (2.41)
KLQFLVLYESRNKNSVA	DASTRFS	QAYHRLPLS	nd nd 1.07 nd 1.57 1.06	1.23	0/18
KFQQSVGYQTRNKNSVA	EASQRES	QQYHRLPLS	1.23 0.72 0.18 0.39 0.33 0.56	0.57	1/18 (2.30)
KLSQSGLYEMRNKNSVA	QASQRLQ	QQYHRLPLS	0.71 0.68 0.61 0.35 0.60 0.59	0.59	0/18
KQEISVLQESRNKNSVA	NASTREV	QQYHRLPLS	-0.03 0.06 -0.05 -0.31 -0.07 0.07	-0.06	0/18
KSSISMLYEERNDNSVA	NASQREH	QQYHRLPLS	0.83 0.12 0.51 0.16 0.19 -0.08	0.29	0/18
KLSQSFDYESRQKNSVA	NAQTRES	QQYHRLPLS	-0.07 -0.01 -0.22 -0.39 -0.19 -0.16	-0.17	1/18 (3.67)
KLSQQDWYESRNKNSVA	QASVREQ	QQYHRLPLS	0.33 0.32 0.15 0.23 0.32 0.47	0.30	3/18 (3.00)
KLSQSFLYESRNWNSVA	AASKRES	QQYHRLPLS	0.86 0.63 0.42 0.31 0.49 0.73	0.57	1/18 (3.34)
KLDQSELYESRNKQSVA	NASQRES	QQYHRLPLS	0.29 0.44 0.37 0.01 0.14 0.34	0.27	1/18 (2.25)
VLSASELYEDRPKNSVA	NASQRMQ	QQYHRLPLS	-0.03 -0.21 0.06 -0.02 0.28 0.19	0.04	1/18 (2.05)
KFFQSVLYEQRNQNNVA	SASTRED	QQYHRLPLS	-0.18 -0.10 0.02 -0.59 -0.99 -0.07	-0.32	0/18
KMSQSWLYESRNSNSVA	EASTRLS	QDYHRLPLS	0.47 0.49 0.37 0.15 0.13 0.49	0.35	1/18 (2.73)
HAYQSGLYEQRNKNSVA	SASMRES	QQYHRLPLS	-0.03 0.14 -0.14 0.05 0.34 0.11	0.08	0/18
KLQQSVLYGSRNKNSVA	QASTRMV	QAYHRLPLS	0.68 0.86 nd 1.02 0.58 0.94	0.82	0/18
KLQMLELYEGRWKNSVA	SASTREE	QQYHRLPLS	0.31 0.11 0.29 -0.04 0.12 0.30	0.18	1/18 (2.35)
KLQQGELYMSRNKNSVA	DASQRES	QQYHRLPLS	0.21 -0.25 -0.26 -0.24 -0.32 -0.40	-0.21	0/18
KLSQADWYESRNKWSVA	NASLREQ	QQYHRLPLS	0.86 1.22 0.84 1.22 0.85 0.86	0.98	0/18
KLQQWDLYESRMKNSVA	HASERES	QCYHRLPLS	1.18 1.28 1.12 1.07 0.91 1.11	1.11	2/18 (2.61)
KIQQSGLGEERNFNSVA	HASTRIS	QQYHRLPLS	0.77 0.66 0.77 0.42 0.33 0.79	0.62	0/18
KMQGSVMMSSRNDNSVA	DASTREE	QQYHRLPLS	0.21 0.05 -0.05 0.01 0.09 0.29	0.10	0/18
KMSQSVLYEDRNSNAVA	QASQRMS	QQYHRLPLS	0.14 0.10 0.03 0.10 0.09 0.31	0.13	3/18 (2.87)
ALSMSEWMESRNKNSVA	SANTREE	QQYHRLPLS	0.03 -0.24 -0.25 -0.34 -0.40 -0.10	-0.22	0/18
KISGSHLYESRNWNAVA	EASTRES	QQYHRLPLS	0.44 0.10 0.23 0.13 0.13 0.24	0.21	3/18 (3.62)
KLQQGVLMESRNKNSVA	NAGKREE	QQYHRLPLS	-0.06 -0.05 -0.10 -0.44 -0.28 -0.24	-0.19	0/18
KVEQSNPYESRNANSVA	NASQRES	QQYHRLPLS	-0.01 0.33 -0.57 0.26 0.24 0.56	0.13	0/18
KVSQSAPYEDRCFNNVA	HASQRES	QQYHRLPLS	0.36 0.45 0.18 0.21 0.36 0.65	0.37	1/18 (3.21)

Of ten entries with the parent sequence, four were seen in most replicates (averages 0.34 to 2.37), three in one and three in none, so single entries are noisy.
A sequence measured in both rounds can read differently, since the two assays cover different ranges.
The authors' rule: three or more of the six replicates give a measured affinity, fewer mean a poor binder.
Background: pairings of all light chain designs with three empty control strains gave a value in 4% of cases (median 2.64, 5th percentile 1.59). Values in that range, when seen in few replicates, are hard to tell from nonspecific mating. Also given: how often the same scFv was detected with the empty control strains, with their mean in brackets.

Source: Li et al. 2023 (doi:10.1038/s41467-023-39022-2), MIT Lincoln Laboratory and A-Alpha Bio; data file from the FLAb repository.